{
  "source": "patent US20260118347A1",
  "about": "(PENN STATE RESEARCH FOUNDATION, published 2026)",
  "target": "T1, apo-LanD (wild-type M. extorquens LanD, landiscernin, META1p1781, with C-terminal Tyr-Gly addition) (Methylobacterium (Methylorubrum) …)",
  "T1 construct": "Metal-free monomer; self-association (Kdimer) is written as m1 with m1; Disulfide between helices 1 and 3; also called WT; WT-LanD w/o signal peptide",
  "assay": "ITC, 240 µM apo-Mex-LanM titrated into 30 µM apo-LanD, independent model; 30 mM MOPS, 100 mM KCl, pH 7.0, 25 C",
  "data": [
    {"binder": "apo-Mex-LanM (metal-free lanmodulin from Methylobacterium (Methylorubrum) extorquens) (other, UniProt C5B164 22-133, looked up, also called apo-LanM; M. extorquens LanM) APTTTTKVDIAAFDPDKDGTIDLKEALAAGSAAFDKLDPDKDGTLDAKELKGRVSEADLKKLDPDNDGTLDKKEYLAAVEAQFKAANPDNDGTIDARELASPAGSALVNLIR", "values": [
      {"measurement": "ΔH", "value": 1.69, "unit": "kcal/mol"},
      {"measurement": "ΔS", "value": 30.6, "unit": "cal/mol · K"}
    ]}
  ]
}
